Reference: patent US11267791B2, “Highly stable crystalline Eltrombopag monoethanolamine salt form D1” (F.I.S.—FABBRICA ITALIANA SINTETICI S.P.A., priority 2018, dated 2022)

Experiment: Relative thermodynamic solubility in water at RT by HPLC
Type: physicochemical
Settings: for Intensity test average: average of solubility tests #1 and #2, HPLC ETP peak area; for Solubility test #1 (area counts) / Solubility test #2 (area counts): saturated water solution, 24 h at RT, HPLC ETP peak area; for Solubility test #2 (area counts): repeat
Procedure: The relative solubility of the above mentioned 4 ETP monoethanolamine salt Forms was studied in water at RT. The validity of any solubility measurement requires that the crystalline form must remain stable with respect to any phase conversion taking place during the determination of the equilibrium solubility.
As the solubility of these forms was very low in water, a suspension (10 mg in 1 mL of water) was performed in water at RT in order to afford a saturated solution. This suspension was stirred 24 h at RT in order to reach the equilibrium. Then, a sample was filtered and the resulting filtrate was analysed by HPLC by duplicate. The average peak area of ETP gave a relative value of the thermodynamic solubility of each form that can be compared with each other. The solids recovered after filtration were also analysed by XRPD to check that no crystalline phase transformation occurred during the slurring.
The following HPLC conditions were used to determine the relative solubility (due to their short analysis time and good response): • Column: C18 Zorbax Eclipse (XDB), 150×4.6 mm, 5 μm • Sample concentration: Saturated water solution of the ETP monoethanolamine salt • Mobile phase: ACN:MeOH:H2O (55:35:10) at pH=6.0+/−0.2 • Temperature: 27° C. • Flow rate: 1 mL/min • UV detector wavelength: 230 nm • Injection: 5 μL • Run time: 10 min
HPLC ETP peak area in each of the different forms analysed was measured in order to establish their relative solubility. The HPLC analyses were performed by duplicate for each ETP monoethanolamine salt.

Row | Intensity test average | Solubility test #1 (area counts) | Solubility test #2 (area counts) | Substance
1 | 4497 | 3963 | 5031 | Eltrombopag monoethanolamine salt [Form H]
2 | 2867 | 3068 | 2665 | Eltrombopag monoethanolamine salt [Form H2]
3 | 8066 | 7930 | 8201 | Eltrombopag monoethanolamine salt [Form D]
